For the experiment, the target named is Shisa6::mCherry (UniProt Q3UH99). Nature of the experiment: FRET or BRET; FRET by fluorescence lifetime imaging (FLIM) of eGFP in living cultured hippocampal neurons at 37 °C; donor PSD-95::eGFP, acceptor Shisa6::mCherry; control: PSD-95::eGFP only.

The chains behind the UniProt entries cited, without tags or fusion partners. Residues count along the entry.
UniProt Q3UH99, 31-525: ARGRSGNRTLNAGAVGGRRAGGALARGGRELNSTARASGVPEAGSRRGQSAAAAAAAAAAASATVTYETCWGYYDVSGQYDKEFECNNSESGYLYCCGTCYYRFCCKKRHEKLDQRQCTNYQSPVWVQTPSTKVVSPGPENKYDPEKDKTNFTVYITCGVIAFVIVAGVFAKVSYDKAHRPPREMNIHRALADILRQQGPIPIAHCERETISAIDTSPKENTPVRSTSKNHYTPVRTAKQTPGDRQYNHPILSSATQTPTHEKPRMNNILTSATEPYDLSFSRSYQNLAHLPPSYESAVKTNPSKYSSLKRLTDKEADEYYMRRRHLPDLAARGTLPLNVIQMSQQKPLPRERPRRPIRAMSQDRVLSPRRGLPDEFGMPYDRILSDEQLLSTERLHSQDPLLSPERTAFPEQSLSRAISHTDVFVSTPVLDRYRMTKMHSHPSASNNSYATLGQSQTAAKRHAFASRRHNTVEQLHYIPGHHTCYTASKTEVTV
UniProt P31016, whole entry: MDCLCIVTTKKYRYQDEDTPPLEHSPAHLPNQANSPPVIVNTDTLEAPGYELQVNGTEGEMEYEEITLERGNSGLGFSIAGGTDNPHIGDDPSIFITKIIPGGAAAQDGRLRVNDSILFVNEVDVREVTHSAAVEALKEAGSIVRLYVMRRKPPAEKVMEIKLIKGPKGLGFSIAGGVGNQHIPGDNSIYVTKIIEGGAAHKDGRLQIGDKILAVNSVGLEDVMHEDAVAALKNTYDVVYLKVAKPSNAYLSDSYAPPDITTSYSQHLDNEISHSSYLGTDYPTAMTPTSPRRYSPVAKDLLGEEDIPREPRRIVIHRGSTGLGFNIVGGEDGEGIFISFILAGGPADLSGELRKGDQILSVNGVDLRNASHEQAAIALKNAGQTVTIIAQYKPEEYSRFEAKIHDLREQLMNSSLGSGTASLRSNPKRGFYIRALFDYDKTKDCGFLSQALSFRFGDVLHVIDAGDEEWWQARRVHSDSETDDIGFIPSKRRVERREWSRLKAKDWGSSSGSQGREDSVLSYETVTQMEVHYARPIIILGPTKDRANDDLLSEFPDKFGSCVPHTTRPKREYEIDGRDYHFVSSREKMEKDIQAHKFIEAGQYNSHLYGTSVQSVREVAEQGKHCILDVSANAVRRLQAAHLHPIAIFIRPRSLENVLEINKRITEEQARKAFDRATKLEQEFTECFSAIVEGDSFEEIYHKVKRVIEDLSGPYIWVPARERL

These results are taken from article PMC4778035.

The substance “PSD-95::eGFP (from UniProt P31016 1-724) (natural protein)” yielded a lifetime of eGFP in dendritic spines (control 2.381 ns) of 2.25 ns and a lifetime of eGFP in the dendritic shaft (control 2.563 ns) of 2.46 ns.
